These results are taken from PMC9705075, “In Vitro characterization of the endocrine disrupting effects of per- and poly-fluoroalkyl substances (PFASs) on the human androgen receptor” (Journal of hazardous materials, 2022).

This test has as its system intracellular AR protein in VCaP cells. Kind of test: Immunoblotting of intracellular AR protein in VCaP cells. The class given is cell-based, human. To be noted: 10% FBS, 1 μM enzalutamide, 48 h. On the procedure: Cells were plated at a density of 2.0 × 10^6 cells/well in 6-well plates (CellStar, Monroe, NC) and incubated 24 h.
Values are expressed as the mean fold change ± S.E.M. from three independent experiments.
On the technique in general: Immunoblotting shows a protein as a band on a membrane.

Structures are written as SMILES.

On to `CNC(=O)c1ccc(N2C(=S)N(c3ccc(C#N)c(C(F)(F)F)c3)C(=O)C2(C)C)cc1F` [enzalutamide, Enzalutamide, reference compound], for which the “cellular AR levels, normal conditions” value is “significantly lowered cellular AR levels”.
